# The entries are a selection whose mix differs from that of the whole data set. Some of these compounds have results that are not shown, active ones among them. Activity calls are given as the source filed them.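 The calls were made as follows: active = viability at or below 50% in the single dose screen; inactive = viability above 50%.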
# Assay: antiproliferative effect on LL 47 fibroblasts – human, LL 47 cells, CellTiter-Glo luminescence, primary screen (AID 719);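 also: compound exposure lasted 72 h before the ATP readout; 100% = median luminescence of untreated cell-only wells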
# Conditions: LL 47 human lung fibroblast viability, ATP luminescence; at 10 µM; stronger effect = lower value
# Method in brief: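 Test system: LL 47 human lung fibroblasts / Incubation: 72 h compound exposure at 37 °C after overnight plating / Technique: luminescent ATP detection, CellTiter-Glo / Compound dosing: 0.1% DMSO in all compound wells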
row,Structure (SMILES),viability
1,CN(C)c1cccc(C(=O)NCC2(N(C)C)CCCCC2)c1,inactive: 101%
2,O=C(OC1CN2CCC1CC2)C(CO)(c1ccccc1)c1ccccc1 (configuration not stated),inactive: 95.3%

# Reference: PubChem BioAssay AID719 (SRMLSC, 2007)
